Drawing on ChEMBL document CHEMBL5532729, “Nonsymmetrically Substituted 1,1'-Biphenyl-Based Small Molecule Inhibitors of the PD-1/PD-L1 Interaction” (ACS Med Chem Lett, 2024), this text covers EC50 for 3 compounds.

In this assay the target is Programmed cell death protein 1/Programmed cell death 1 ligand 1 (Homo sapiens, UniProt Q9NZQ7).
In turn, `Cc1c(NC(=O)c2ccc(CNCCCO)cn2)cccc1-c1cccc(NC(=O)c2ccc(CN[C@@H](C)CO)cn2)c1C` gave a concentration giving a half-maximal response (EC50) of 34.4 nM.

`Cc1c(NC(=O)c2ccc(CN[C@@H](C)CO)cn2)cccc1-c1cccc(NC(=O)c2ccc(CN[C@@H]3CCC[C@H]3O)cn2)c1C` yielded an EC50 of 130 nM.

Take `Cc1c(NC(=O)c2ccc(CN3CCN(S(C)(=O)=O)CC3)cn2)cccc1-c1cccc(NC(=O)c2cc(CNCCO)ccn2)c1C`: the EC50 turned out to be 905 nM.

Broadly, the EC50 is the concentration giving half of the maximal effect. Read a low EC50 as greater potency.
